## Antibody variant affinities, Ab-14 heavy chain, assay 1

The target is the same throughout: PDVDLGDISGINAS, from the HR2 region of SARS-CoV-2 spike.

Parent scFv Ab-14: VH joined to VL by a (GGGGS)3 linker. Changes lie in the heavy chain CDRs alone.
VH: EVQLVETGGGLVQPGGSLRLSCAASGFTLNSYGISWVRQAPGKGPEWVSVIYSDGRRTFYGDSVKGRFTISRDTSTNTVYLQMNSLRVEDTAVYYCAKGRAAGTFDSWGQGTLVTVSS
VL: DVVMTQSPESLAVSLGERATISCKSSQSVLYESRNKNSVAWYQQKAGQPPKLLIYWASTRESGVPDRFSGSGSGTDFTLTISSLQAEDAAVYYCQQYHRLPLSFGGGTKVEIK

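The starting antibody came from a phage panning campaign against this peptide. In library AAYL49, one, two or three CDR residues were substituted; doubles and triples were drawn at random. In AlphaSeq, yeast of one mating type display the scFv and yeast of the other type display the target. Pairs that bind mate more often; barcode pairs of the diploids are counted by sequencing. Read counts were normalised to the haploid input and turned into Kd by a linear fit to BCL2-family pairs of known affinity, for each replicate. Each pool was mated in three replicate cultures.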

Positions count from residue 1 of the parent VH; Y32N puts N in place of Y.
All variants listed here change Y32 of the VH, counted from its first residue.
Values are apparent Kd, the geometric mean of the replicates that gave a signal; lower means stronger binding.
A pair that was not seen in any replicate is written "nd"; this usually means weak binding, but a binder can also be missed.
The list is sorted by this average, lowest first, undetected variants last.
As a blank, each scFv also met three strains without target: over library AAYL49, 15% of these pairings were detected, typically at 11 µM and seldom below 680 nM.

Variant Y32N gave 38 nM (3 of 3 replicates). For T28V+Y32A, the assay gave 710 nM (3 of 3 replicates). With Y32R+F105C+S107C the result was 1.8 µM (1 of 3 replicates). For Y32E+G33N+G103P, the assay gave 2.2 µM (1 of 3 replicates). Variant Y32D+R57M+S63M gave 2.3 µM (1 of 3 replicates). Variant Y32R+Y52D+R57T gave 2.4 µM (1 of 3 replicates).

Variant Y32C+S53Y+G55W gave 3.1 µM (1 of 3 replicates). For G26H+T28Q+Y32G, the assay gave 3.2 µM (1 of 3 replicates). Variant Y32S+K65A showed 4.3 µM (2 of 3 replicates). For L29R+Y32N+R100T, the assay gave 4.8 µM (1 of 3 replicates). With Y32G+S53T+R100L the result was 6.3 µM (1 of 3 replicates). With Y32E+R57W+S107D the result was 6.3 µM (1 of 3 replicates).

Variant Y32W+F59A+F105K gave 7.9 µM (1 of 3 replicates). Variant L29M+N30T+Y32M gave 8.0 µM (3 of 3 replicates). Variant Y32N+V64I+G99M gave 11 µM (2 of 3 replicates). With Y32R+S35K+S107P the result was 22 µM (2 of 3 replicates). For Y32S+Y52P, the assay gave 23 µM (1 of 3 replicates). For L29E+Y32N, the assay gave 24 µM (2 of 3 replicates).

Variant Y32Q+Y52C showed 38 µM (2 of 3 replicates). With S31T+Y32L+D54K the result was 40 µM (3 of 3 replicates). Variant Y32K+R56K+S63F showed 85 µM (2 of 3 replicates). With S31D+Y32R+R100Y the result was 98 µM (2 of 3 replicates). With Y32A+D54M+G55N the result was 240 µM (1 of 3 replicates). Variant Y32D+G33V+G55M showed 680 µM (1 of 3 replicates).

With Y32E+I51T+K65Q the result was 820 µM (2 of 3 replicates). With Y32Q+D54K+G99V the result was 940 µM (1 of 3 replicates). Variant Y32I+D54W+R57N gave nd (0 of 3 replicates). Variant Y32N+I34F+F59I gave nd (0 of 3 replicates). With Y32F+I51P+G61R the result was nd (0 of 3 replicates). For Y32P+D54E+T104Y, the assay gave nd (0 of 3 replicates).

Variant Y32P+G55K+R56Y showed nd (0 of 3 replicates). With Y32P+G61M+S107Q the result was nd (0 of 3 replicates). With Y32H+K65I+F105T the result was nd (0 of 3 replicates). Variant G26V+Y32D+G33S showed nd (0 of 3 replicates). With Y32N+G33L+F59S the result was nd (0 of 3 replicates). For Y32P+D62T+G99H, the assay gave nd (0 of 3 replicates).

With N30Q+Y32A+D54G the result was nd (0 of 3 replicates). Variant F27D+S31C+Y32I showed nd (0 of 3 replicates). With L29D+Y32C+F59N the result was nd (0 of 3 replicates). For Y32N+R57K+D106Y, the assay gave nd (0 of 3 replicates). For Y32I+G99R+R100K, the assay gave nd (0 of 3 replicates). Variant Y32W+G33I+D62S showed nd (0 of 3 replicates).

Variant Y32D+D54S+G103A showed nd (0 of 3 replicates). With Y32L+G61N+T104V the result was nd (0 of 3 replicates).

From the list, the first 5 with no signal in any replicate:

With Y32I+D54W+R57N the result was nd (0 of 3 replicates).
With Y32N+I34F+F59I the result was nd (0 of 3 replicates).
With Y32F+I51P+G61R the result was nd (0 of 3 replicates).
With Y32P+D54E+T104Y the result was nd (0 of 3 replicates).
With Y32P+G55K+R56Y the result was nd (0 of 3 replicates).

Parent in this assay: reference entry 4.4 nM, copy in this library 13 µM (one replicate of three).

Reference: Engelhart et al. 2022, doi:10.1038/s41597-022-01779-4. File: FLAb, binding data.